In the assay the target is T1, SETDB1 3TD, wildtype (Homo sapiens, UniProt Q15047).
T1 construct: cloned into the pET28a-MHL (residues 190–410), pGEX6P2, and pGEX-4T-1 (residues 197–403) vectors; 6×His; made in house; host or cells: E. coli BL21 derivative (SGC) with pRARE
In words: NMR chemical shift perturbation binding to 3TD. To be noted: 15N HSQC, 25 °C, pH 7.0, 150 mM NaCl. As for the experimental part:
NMR experiments were collected on a Bruker Avance 500-MHz spectrometer equipped with a cryogenic probe. Chemical shift perturbation experiments were carried out using uniformly ^15N-labeled wildtype 3TD protein in 20 mM Tris/HCl pH 7.0 and 150 mM NaCl. ^1H, ^15N HSQC spectra were recorded at 25 °C in the presence of increasing concentrations of histone tail peptides. K d values were calculated by a nonlinear least-squares analysis in Kaleidagraph using the equation Δδ=ΔδmaxcL+cP+Kd-cL+cP+Kd^2-4cLcP∕2cP, where c L is the concentration of the peptide, c P is the concentration of the protein, Δδ is the observed normalized chemical shift change, and Δδ max is the normalized chemical shift change at saturation, calculated as Δδ=ΔδH^2+ΔδN∕5^2, where δ is the chemical shift in p.p.m.
Supplementary Figure 1: Peptide binding of 3TD. (a) Titration of 3TD binding to peptide arrays. Note the specific binding to H3K9me1/2/3-K14ac double modified […]
concentration (100 nM). (b) ITC analysis of 3TD binding to single modified H3 tail […]
peptides. (c) NMR chemical shift perturbation experiments carried out to detect potentially weak binding of 3TD to H3K14ac, H3K9me3 and unmodified H3. Weak binding of H3K14ac could be detected and the […]
H3 was observed. Panel a relates to Fig. 1, panels b and c to Fig. 2.
(1 picture or pasted object on this page, not shown here)

The text below walks through data of PMC5727127, “H3K14ac is linked to methylation of H3K9 by the triple Tudor domain of SETDB1” (Nature Communications, 2017).

With `C[C@H](NC(=O)[C@@H](NC(=O)[C@H](CCC(N)=O)NC(=O)[C@@H](N)CCCCN)[C@@H](C)O)C(=O)N[C@@H](CCCNC(=N)N)C(=O)N[C@@H](CCCCN)C(=O)N[C@@H](CO)C(=O)N[C@H](C(=O)NCC(=O)NCC(=O)N[C@@H](CCCCN)C(=O)N[C@@H](C)C(=O)N1CCC[C@H]1C(=O)N[C@@H](CCCNC(=N)N)C(=O)N[C@@H](CCCCN)C(=O)N[C@@H](CCC(N)=O)C(=O)O)[C@@H](C)O` [H3(4–19) unmodified], the “binding detected by NMR” value is reported as “no detectable binding”.
